Measured values as given in patent US20250255874A1, “Methods for Treating Immune Thrombocytopenia By Administering (R)-2-[3-[4-Amino-3-(2-Fluoro-4-Phenoxy-Phenyl)Pyrazolo[3,4-D]Pyrimidin-1-YL]Piperidine-1-Carbonyl]-4-Methyl-4-[4-(Oxetan-3-YL)Piperazin-1-YL]Pent-2-Enentrile” (Principia Biopharma Inc., priority 2022, published 2025).

How the values were obtained:
[1] = system: patients with relapsed/refractory immune thrombocytopenia; settings: in vivo;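 further: adverse events graded by NCI CTCAE version 4.0, with worsening of pre-existing conditions counted as adverse events, analysed in the Safety Population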
[2] = system: patients with relapsed/refractory immune thrombocytopenia; test: Phase 1/2 study (NCT03395210) Part A, safety;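 further: adverse events graded by NCI CTCAE version 4.0, with worsening of pre-existing conditions counted as adverse events, analysed in the Safety Population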

In the case of `CC(C)(C=C(C#N)C(=O)N1CCC[C@@H](n2nc(-c3ccc(Oc4ccccc4)cc3F)c3c(N)ncnc32)C1)N1CCN(C2COC2)CC1` [rilzabrutinib, (R)-2-[3-[4-amino-3-(2-fluoro-4-phenoxy-phenyl)pyrazolo[3,4-d]pyrimidin-1-yl]piperidine-1-carbonyl]-4-methyl-4-[4-(oxetan-3-yl)piperazin-1-yl]pent-2-enenitrile], the “adverse events typically associated with BTK inhibitors (neutropenia, treatment-related infections, bleeding, thrombotic events, fungal infections, atrial fibrillation)” value [1] is reported as “no signs or symptoms”, the dose-limiting toxicities ([2]; 45 patients initiating 400 mg bid) is reported as “no dose-limiting toxicities” and the “treatment-related grade ≥2 bleeding or thrombotic events” value ([2]; 45 patients who initiated 400 bid) is reported as “no treatment-related grade ≥2 bleeding or thrombotic events”. The “Any TEAE, Treatment-Related TEAEs, Grade 3/4” value ([2]; Safety Population, N = 60) was 0 (0) number of patients (percent), the “treatment-related grade ≥3 or serious adverse events” value ([2]; all doses) was “No treatment-related grade ≥3 or serious adverse events were observed” and the “IBLS grade 3, 4, or 5 bleeding events” value ([2]; baseline or week 24/EOS, patients who completed 24 weeks (n=34)) was “no grade 3, 4, or 5 bleeding events”. The “IBLS bleeding scale scores within each domain” value ([2]; baseline through end of treatment, improved at skin and oral sites) was “no increase in bleeding”, the “patients developing platelet counts >400×10^9/L” value ([2]; in vivo) was “no patient developed platelet counts >400×10^9/L” and the “patients with a TEAE that resulted in study drug discontinuation” value ([2]; in vivo) was “Seven”.
